Experiments:
Experiment in all cases: cell-based or functional assay
[1] = target: SSTR1 fused to PK2 (UniProt P30872)
[2] = target: SSTR1 fused to PK1 (UniProt P30872)
[3] = target: SSTR4 fused to PK2 (UniProt P31391)
[4] = target: SSTR4 fused to PK1 (UniProt P31391)

The chains behind the UniProt entries cited, without tags or fusion partners. Where a name states a change or a piece, a line headed by the entry shows the natural chain unless it says otherwise.
UniProt P30872: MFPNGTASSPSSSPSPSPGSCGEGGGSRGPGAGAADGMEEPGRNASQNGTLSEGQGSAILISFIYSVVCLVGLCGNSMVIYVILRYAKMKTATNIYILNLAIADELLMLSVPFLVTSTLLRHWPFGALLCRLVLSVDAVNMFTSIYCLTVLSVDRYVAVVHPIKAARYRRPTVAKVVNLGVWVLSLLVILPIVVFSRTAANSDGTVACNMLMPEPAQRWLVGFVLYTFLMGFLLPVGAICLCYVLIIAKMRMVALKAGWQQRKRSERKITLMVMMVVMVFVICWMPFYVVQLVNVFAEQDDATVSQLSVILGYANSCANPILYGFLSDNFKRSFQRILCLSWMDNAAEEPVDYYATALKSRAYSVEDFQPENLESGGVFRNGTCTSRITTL
UniProt P31391: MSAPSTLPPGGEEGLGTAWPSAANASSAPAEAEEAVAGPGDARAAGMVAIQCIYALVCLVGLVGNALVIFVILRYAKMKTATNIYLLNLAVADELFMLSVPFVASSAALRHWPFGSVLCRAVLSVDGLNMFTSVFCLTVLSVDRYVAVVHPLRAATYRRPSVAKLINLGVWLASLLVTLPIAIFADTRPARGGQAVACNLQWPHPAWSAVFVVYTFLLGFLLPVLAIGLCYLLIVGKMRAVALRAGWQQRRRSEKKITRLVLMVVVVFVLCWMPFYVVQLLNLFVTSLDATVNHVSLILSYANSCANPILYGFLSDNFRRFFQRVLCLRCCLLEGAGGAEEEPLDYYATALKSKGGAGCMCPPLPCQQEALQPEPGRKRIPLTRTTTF
UniProt P61278: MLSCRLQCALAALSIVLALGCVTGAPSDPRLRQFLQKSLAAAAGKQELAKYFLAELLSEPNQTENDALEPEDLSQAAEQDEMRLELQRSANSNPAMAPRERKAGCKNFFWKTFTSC

Fold induct. (arrestin recruitment, beta-galactosidase EFC, saturating ligand) [1] | Fold induct. (arrestin recruitment, beta-galactosidase EFC, saturating ligand) [2] | Fold induct. (arrestin recruitment, beta-galactosidase EFC, saturating ligand) [3] | Fold induct. (arrestin recruitment, beta-galactosidase EFC, saturating ligand) [4] | Substance
1.5 fold | 1 fold | 1.6 fold | 1.5 fold | Somatostatin-14 (from UniProt P61278 103-116) (peptide)
2.2 fold | – | – | – | [TYR1] Somatostatin 14 (from UniProt P61278 103-116) (peptide)
